Results as given in patent US12358949B2, “Defensin fragments for use in therapy or prophylaxis” (priority 2019, dated 2025).

Test system: human erythrocytes
Assay: Hemolytic assay
Type: cell-based
Details: at 1.25 μM
Experimental: Hemolytic activity was measured after an existing protocol^13. We obtained blood from two voluntary donors (sample collection had been previously approved by the Ethical Committee of the University Hospital of Tübingen, Germany) and 1 ml blood was washed with PBS two times. Afterwards we centrifuged the blood at 1000 g and performed a 1% (v/v) blood suspension in PBS. The blood suspension was incubated with different peptide concentrations (final concentration 0.5%) for one hour at 37° C. Then the samples were centrifuged at 1000 g for 10 minutes and the supernatant was collected and measured at 414 nm. […] These experiments were carried out in duplicates.

In the case of `CC[C@H](C)[C@H](NC(=O)CN)C(=O)NCC(=O)N[C@@H](C)C(=O)N[C@H](C(=O)N[C@@H](CC(C)C)C(=O)N[C@@H](CCCCN)C(=O)N[C@H](C(=O)N[C@@H](CC(C)C)C(=O)N[C@H](C(=O)N[C@H](C(=O)NCC(=O)N[C@@H](CC(C)C)C(=O)N1CCC[C@H]1C(=O)N[C@@H](C)C(=O)N[C@@H](CC(C)C)C(=O)N[C@H](C(=O)N[C@@H](CO)C(=O)N[C@@H](Cc1c[nH]c2ccccc12)C(=O)N[C@H](C(=O)N[C@@H](CCCCN)C(=O)N[C@@H](CCCNC(=N)N)C(=O)N[C@@H](CCCCN)C(=O)N[C@@H](CCCNC(=N)N)C(=O)N[C@@H](CCC(N)=O)C(=O)N[C@@H](CCC(N)=O)C(N)=O)[C@@H](C)CC)[C@@H](C)CC)[C@@H](C)O)[C@@H](C)O)C(C)C)C(C)C` [Melittin, reference compound], the hemolytic effect is reported as 80%.
